In patent publication US20250376468A1, “PYRAZOLO[1,5-a]PYRIDINE DERIVATIVES FOR TREATING TRPM3-MEDIATED DISORDERS” (Katholieke Universiteit Leuven, priority 2022, published 2025) one finds IC50 data, which are given here for 11 compounds.

By UniProt entry, the sequences of proteins in these tests, tags left out. Residues count along the entry.
UniProt J9SQF3, 1-1709 isoform 12: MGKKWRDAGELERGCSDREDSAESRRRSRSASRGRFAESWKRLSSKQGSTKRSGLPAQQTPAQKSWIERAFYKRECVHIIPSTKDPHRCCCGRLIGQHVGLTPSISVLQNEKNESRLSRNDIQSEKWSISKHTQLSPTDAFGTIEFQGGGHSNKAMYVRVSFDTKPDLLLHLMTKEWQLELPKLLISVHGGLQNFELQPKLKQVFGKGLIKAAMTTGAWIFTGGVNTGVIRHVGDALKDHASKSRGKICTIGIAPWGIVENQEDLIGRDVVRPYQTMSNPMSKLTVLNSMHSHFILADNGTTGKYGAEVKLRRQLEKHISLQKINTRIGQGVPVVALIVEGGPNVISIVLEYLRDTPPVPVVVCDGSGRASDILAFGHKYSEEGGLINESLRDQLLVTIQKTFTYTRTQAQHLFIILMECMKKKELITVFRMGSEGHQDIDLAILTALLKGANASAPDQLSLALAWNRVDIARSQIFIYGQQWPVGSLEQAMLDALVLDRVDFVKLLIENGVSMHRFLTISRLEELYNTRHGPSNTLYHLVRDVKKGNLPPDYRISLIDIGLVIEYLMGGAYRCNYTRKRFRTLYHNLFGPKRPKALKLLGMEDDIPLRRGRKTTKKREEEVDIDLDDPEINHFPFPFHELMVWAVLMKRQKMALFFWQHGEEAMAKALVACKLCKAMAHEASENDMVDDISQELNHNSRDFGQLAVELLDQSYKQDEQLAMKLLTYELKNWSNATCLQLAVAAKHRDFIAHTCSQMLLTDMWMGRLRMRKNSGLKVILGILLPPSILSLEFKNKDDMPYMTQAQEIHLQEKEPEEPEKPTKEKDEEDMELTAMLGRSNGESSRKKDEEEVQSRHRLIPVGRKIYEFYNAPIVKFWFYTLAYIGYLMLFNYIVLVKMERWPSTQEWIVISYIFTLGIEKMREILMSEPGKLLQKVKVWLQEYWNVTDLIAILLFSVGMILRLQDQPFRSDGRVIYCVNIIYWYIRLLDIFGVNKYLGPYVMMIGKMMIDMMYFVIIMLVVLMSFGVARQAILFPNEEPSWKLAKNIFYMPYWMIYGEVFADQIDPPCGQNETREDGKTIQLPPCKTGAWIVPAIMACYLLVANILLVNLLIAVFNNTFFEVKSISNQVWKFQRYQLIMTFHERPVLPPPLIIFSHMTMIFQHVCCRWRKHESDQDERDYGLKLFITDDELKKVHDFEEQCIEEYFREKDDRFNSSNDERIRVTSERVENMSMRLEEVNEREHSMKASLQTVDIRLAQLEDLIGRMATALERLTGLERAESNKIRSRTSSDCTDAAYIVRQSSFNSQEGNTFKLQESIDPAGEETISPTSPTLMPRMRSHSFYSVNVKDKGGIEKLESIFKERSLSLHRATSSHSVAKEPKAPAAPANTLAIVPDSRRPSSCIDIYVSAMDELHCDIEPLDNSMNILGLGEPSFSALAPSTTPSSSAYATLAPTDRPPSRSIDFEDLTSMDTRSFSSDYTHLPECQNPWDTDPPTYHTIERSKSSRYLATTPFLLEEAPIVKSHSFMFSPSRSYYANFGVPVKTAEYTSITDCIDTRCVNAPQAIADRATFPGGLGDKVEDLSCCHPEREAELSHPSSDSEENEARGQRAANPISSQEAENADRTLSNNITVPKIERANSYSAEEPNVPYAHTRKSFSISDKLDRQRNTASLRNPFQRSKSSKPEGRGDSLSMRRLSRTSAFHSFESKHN

In this assay the target is mouse TRPM3α2 (mTRPM3) ion channel (Mus musculus, UniProt J9SQF3). The assay can be described thus: TRPM3 ion channel driven Ca2+ uptake, Fluo-4 AM assay, stimulated with pregnenolone sulfate (50 μM). Particulars: TRPM3 overexpressing flip-in HEK293 cells, PS 50 μM, 2.4 mM Ca2+. How it is done: In order to monitor the inhibition of the mouse TRPM3α2 (mTRPM3) ion channel by the compounds of the invention, a cellular system making use of an mTRPM3alpha2 or hTRPM3 overexpressing cell line (flip-in HEK293) was used. The TRPM3 channel was stimulated/opened with Pregnenolone sulfate (PS) (50 μM) which results in Ca^2+ influx.
For mTRPM3, the intracellular Ca^2+ was measured with a Calcium responsive dye, Fluor-4 AM ester (Invitrogen). Cells were cultured until a confluence of 80-90%, washed with Versene (Invitrogen) and detached from the surface by a short incubation with 0.05% Trypsin (Invitrogen). The […] was stopped by the addition of complete cell culture medium (DMEM, glutamax, 10% FCS, NEAA, Pen-Strep). Cells were collected and resuspended in Krebs buffer without Calcium at RT.
Prior the cell seeding (±2000 cells/well into a black, 384 well plate (Greiner)) the diluted compound was added in the assay plate, together with the PS dissolved in Krebs buffer containing Calcium. […] Directly after cell addition the plates were read on an Envision fluorescence reader (Perkin Elmer) by an Excitation of 485 nm and emission at 535 nm.
Channel inhibition was calculated compared to a non-PS stimulated control versus a condition stimulated with PS (50 μM) with vehicle. The ability of the compounds of the invention to inhibit this activity was determined as: Percentage inhibition=[1−((RFU determined for sample with test compound present−RFU determined for sample with positive control inhibitor) divided by (RFU determined in the presence of vehicle−RFU determined for sample with positive control inhibitor))]*100.
The activities of the Example compounds cpd 001-091 tested are depicted in the table below. All tested compounds show an activity in the Fluo-4 AM assay. The activity ranges A, B and C refer to IC50 values in the Fluo-4 AM assay as follows: “A”: IC50<1 μM; “B”: 1 μM≤IC50≤20 μM and “C”: IC50>20 μM.

As for `Cc1nn2ccc(OCc3ccccn3)cc2c1C(=O)NCC(O)CC(F)(F)F` (single isomer, unassigned) [Cpd 081 - En1], the IC50 (in general, the point on the concentration scale where inhibition reaches its midpoint) is greater than 20 µM.
The figure for `Cc1nn2ccc(OCc3ccccn3)cc2c1C(=O)NC(CO)c1ccn(C)n1` (single isomer, unassigned) [Cpd 087 - En1] is greater than 20 µM.
The compound `Cc1nn2ccc(OCc3ccccn3)cc2c1C(=O)NC(CO)C(F)(F)F` (single isomer, unassigned) gave a concentration for half-maximal inhibition (IC50) of 1 to 20 µM.
To `Cc1ncsc1COc1ccn2nc(C)c(C(=O)NC3CNCCC3(F)F)c2c1` (single isomer, unassigned) [Cpd 049 - En1] belongs 1 to 20 µM; to `Cc1nn2ccc(OCc3ccccn3)cc2c1C(=O)NC(CO)c1nccn1C1CC1` (single isomer, unassigned), 1 to 20 µM.
The figure for `Cc1nn2ccc(OCc3ccccc3F)cc2c1C(=O)NC(C)(CO)C(=O)N(C)C` (single isomer, unassigned) [Cpd 017 - En2] is greater than 20 µM; for `Cc1nn2ccc(OCc3ccccn3)cc2c1C(=O)NC(CO)CC(F)(F)F` (single isomer, unassigned) [Cpd 062 - En2] it is greater than 20 µM; for `Cc1nn2ccc(OCc3ccccc3F)cc2c1C(=O)NC(C)(CO)CC(F)F` (single isomer, unassigned) [Cpd 025 - En1] it is 1 to 20 µM.
`Cc1nn2ccc(OCc3ccccn3)cc2c1C(=O)NC(CO)C(C(F)(F)F)C(F)(F)F` (single isomer, unassigned) [Cpd 063 - En2] displayed an IC50 of less than 1 µM.
The figure for `COCC(C)(CC(F)F)NC(=O)c1c(C)nn2ccc(OCc3ccccn3)cc12` (single isomer, unassigned) is greater than 20 µM.
On to `Cc1nn2ccc(OCC(F)F)cc2c1C(=O)NC(C)(CO)C(N)=O` (single isomer, unassigned) [Cpd 015 - En1], for which the IC50 lay within 1 to 20 µM.
